# Values quoted from earlier work as cited in patent publication US20250032449A1, “TREATMENT OF RHEUMATOID ARTHRITIS” (SYNACT PHARMA APS, priority 2021, published 2025).
# Details: PCT/EP2022/066906; cited from earlier work
row,Substance,Solubility at low pH
1,(E)-N-trans-{3-[1-(2-nitrophenyl)-1H-pyrrol-2-yl]-allylidene}-aminoguanidinium succinate [AP1189 succinate],highly soluble at low pH
2,(E)-N-trans-{3-[1-(2-nitrophenyl)-1H-pyrrol-2-yl]-allylidene}-aminoguanidinium acetate [AP1189],highly soluble at low pH
